Test results taken from ChEMBL document CHEMBL4420071, “Method for treating skin with retinoids and retinoid boosters” (2013).

Tests used:
[1] = target: T1, Lecithin retinol acyltransferase (Bos taurus) (UniProt Q9BGL2); details: at 100 µM
T1 sequence (whole entry): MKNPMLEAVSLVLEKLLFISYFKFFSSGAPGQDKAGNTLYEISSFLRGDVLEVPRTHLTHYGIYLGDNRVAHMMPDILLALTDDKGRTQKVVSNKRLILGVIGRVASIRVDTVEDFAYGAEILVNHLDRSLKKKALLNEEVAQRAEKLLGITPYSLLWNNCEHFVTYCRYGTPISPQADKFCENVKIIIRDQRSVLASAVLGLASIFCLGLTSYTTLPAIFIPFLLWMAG

[2] = target: T1, Lecithin retinol acyltransferase (Bos taurus); test: Inhibition of LRAT in bovine RPE microsomes at 10 uM using retinol substrate in presence of Palmitoyl-CoA incubated for 5 mins by HPLC analysis relative to control

Row | SMILES | inhibition [1] [%] | inhibition [2] [%]
1 | CC(C)=CCCC(C)CCO (stereo unspecified) | 0 | –
2 | CC1=CCC(C(C)(C)O)CC1 (stereo unspecified) | 25 | –
3 | CCCCCCCCCCCCCCCC(=O)NCCO | 33 | 12
4 | CC(C)(O)CCCC1=CCC(C=O)CC1 (stereo unspecified) | 71 | –
5 | C[C@H]1[C@H](C)CC[C@]2(C(=O)O)CC[C@]3(C)C(=CC[C@@H]4[C@@]5(C)CC[C@H](O)C(C)(C)[C@@H]5CC[C@]43C)[C@H]12 | 28 | –
